This is a selection: effects in other tests are not listed, and their absence says nothing.
Assays:
DQ8 = DQ8 (Homo sapiens, UniProt P01909+P01920, A209T/A45G/C70Q/D89A/DUP78-78/E183D/E77G/F237L/G63E/H199R/I129T/K197E/L178F/L74F/L98V/Q57E/Q76R/S185I/S97I/T217I/T49S/V73L/Y58L); assay: Competitive binding assay B:9-23 to DQ8; settings: >100 uM means some effect at 100 uM but not 50% inhibition; < means lower concentrations not used
[1] = test system: clone 5 T cell hybridoma (DQ8 restricted T cell that responds to insulin B:9-23); assay: T cell stimulation assay, clone 5 T cell hybridoma with insulin B:9-23 peptide; settings: read-out: T cell stimulation Assay Clone 5 & B:9-23 (IC50); IL-2 in supernatant after overnight culture; < means lower concentrations have not been used

`NN(CCCl)CCCl` was tested, and the “Competitive Binding Assay B:9-23 to DQ8 (IC50)” value (DQ8) was “No inhibition” and the IC50 [1] was less than 100 nM.
